# Measured values from paper PMC2637613 (Basic & clinical pharmacology & toxicology, 2008).
# Amino acid sequences for entries named in this document (tags omitted). A change or cut given only in a name is not applied to a line headed by its entry.
# UniProt Q9UNQ0: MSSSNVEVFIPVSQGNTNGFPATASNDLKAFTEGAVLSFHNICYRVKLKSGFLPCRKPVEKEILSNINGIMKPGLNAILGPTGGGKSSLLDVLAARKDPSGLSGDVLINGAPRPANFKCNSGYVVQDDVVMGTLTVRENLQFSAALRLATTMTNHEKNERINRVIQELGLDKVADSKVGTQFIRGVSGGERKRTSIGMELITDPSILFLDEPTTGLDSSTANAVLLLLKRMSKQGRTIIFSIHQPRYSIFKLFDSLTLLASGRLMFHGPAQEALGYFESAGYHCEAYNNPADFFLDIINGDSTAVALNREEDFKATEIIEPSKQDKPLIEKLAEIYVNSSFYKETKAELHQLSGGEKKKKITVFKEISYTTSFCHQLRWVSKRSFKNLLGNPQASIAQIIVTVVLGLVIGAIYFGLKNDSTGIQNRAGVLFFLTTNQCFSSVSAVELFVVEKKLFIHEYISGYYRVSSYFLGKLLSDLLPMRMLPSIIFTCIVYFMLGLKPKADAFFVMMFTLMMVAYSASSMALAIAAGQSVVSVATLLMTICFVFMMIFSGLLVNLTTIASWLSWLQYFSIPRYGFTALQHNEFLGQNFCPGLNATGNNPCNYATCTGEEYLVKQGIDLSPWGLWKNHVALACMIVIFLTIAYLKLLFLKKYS
# Legend:
# [1] = target: T1, BCRP (Homo sapiens, UniProt Q9UNQ0); experiment: cell-based
# [2] = target: T1, BCRP; conditions: estimated liver concentration divided by BCRP IC50 in MCF7/MX100 cells
SMILES,IC50 [1] [µM],Cmax * liver:plasma partition ratio/IC50 [2]
Cc1cc2c(s1)Nc1ccccc1N=C2N1CCN(C)CC1 [Olanzapine],> 100,<0.09
Cc1nc2n(c(=O)c1CCN1CCC(c3noc4cc(F)ccc34)CC1)CCCC2 [Risperidone],38.1,0.2
